Values of other authors as cited in patent US20200306255A1, “COMPOSITIONS AND METHODS FOR TREATING NIEMANN PICK C DISEASE” (AI Therapeutics, Inc., priority 2016, published 2020).

System: adipocytes
Details: read-out: inhibition of basal and insulin-activated 2-deoxyglucose uptake, IC50; cited from earlier work

Nc1ccc(C(=O)Nc2cccc(-c3nc(N4CCOCC4)c4oc5ncccc5c4n3)c2)cn1 [YM-201636, 6-amino-N-(3-(4-morpholinopyrido[3′,2′:4,5]furo[3,2-d]pyrimidin-2-yl)phenyl)nicotinamide]
IC50: 0.054 µM
